Data taken from paper PMC3227451, “Structure-based development of novel sirtuin inhibitors” (Aging (Albany NY), 2011).

Protein sequences, listed by entry. Tags and fused reporters are not part of them. Residues count along the entry.
UniProt Q8IXJ6, 34-356 limits assumed: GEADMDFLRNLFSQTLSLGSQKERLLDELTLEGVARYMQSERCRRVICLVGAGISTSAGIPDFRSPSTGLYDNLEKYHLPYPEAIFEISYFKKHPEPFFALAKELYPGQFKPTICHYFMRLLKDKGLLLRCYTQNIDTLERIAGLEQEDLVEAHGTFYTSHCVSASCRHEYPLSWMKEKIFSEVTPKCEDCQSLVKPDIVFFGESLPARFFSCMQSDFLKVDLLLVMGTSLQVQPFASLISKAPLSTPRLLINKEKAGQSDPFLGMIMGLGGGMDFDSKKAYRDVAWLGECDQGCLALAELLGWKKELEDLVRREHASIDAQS
UniProt Q8N6T7, 13-308 limits assumed: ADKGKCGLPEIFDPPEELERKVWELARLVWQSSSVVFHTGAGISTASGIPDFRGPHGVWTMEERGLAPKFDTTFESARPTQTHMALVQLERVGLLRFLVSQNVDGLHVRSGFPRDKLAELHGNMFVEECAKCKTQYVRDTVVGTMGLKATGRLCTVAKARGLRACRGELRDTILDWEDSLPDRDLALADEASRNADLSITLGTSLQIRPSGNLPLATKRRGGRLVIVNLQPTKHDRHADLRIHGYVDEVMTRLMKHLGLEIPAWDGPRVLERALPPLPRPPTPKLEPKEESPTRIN
UniProt Q9NXA8, 34-302 limits assumed: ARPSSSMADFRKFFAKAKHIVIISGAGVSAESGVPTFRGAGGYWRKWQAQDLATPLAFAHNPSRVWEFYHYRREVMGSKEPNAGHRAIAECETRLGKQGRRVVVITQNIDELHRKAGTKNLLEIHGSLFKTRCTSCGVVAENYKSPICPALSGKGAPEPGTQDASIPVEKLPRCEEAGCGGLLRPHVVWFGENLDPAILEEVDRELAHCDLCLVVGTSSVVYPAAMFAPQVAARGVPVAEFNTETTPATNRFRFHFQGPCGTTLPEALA
UniProt Q9NTG7, 114-399 limits assumed: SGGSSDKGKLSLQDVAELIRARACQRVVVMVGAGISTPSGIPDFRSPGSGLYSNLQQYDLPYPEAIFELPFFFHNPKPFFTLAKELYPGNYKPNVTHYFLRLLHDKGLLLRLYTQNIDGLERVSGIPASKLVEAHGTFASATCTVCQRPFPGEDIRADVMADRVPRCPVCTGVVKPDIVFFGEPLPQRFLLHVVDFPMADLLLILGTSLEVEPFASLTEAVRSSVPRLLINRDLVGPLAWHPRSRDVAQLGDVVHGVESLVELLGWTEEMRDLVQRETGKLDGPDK

Tests used:
Format in all cases: biochemical
[1] = target: Sirt2 (Homo sapiens, UniProt Q8IXJ6); experiment: Fluor-de-Lys peptide deacetylation assay, Sirt2; conditions: 100 μM compound; 0.1 mM FdL-2 peptide, 0.5 mM NAD+
[2] = target: Sirt6 (Homo sapiens, UniProt Q8N6T7); experiment: Fluor-de-Lys peptide deacetylation assay, Sirt6; conditions: 100 μM compound; 0.1 mM FdL-1 peptide, 0.5 mM NAD+
[3] = target: Sirt5 (Homo sapiens, UniProt Q9NXA8); experiment: Fluor-de-Lys peptide deacetylation assay, Sirt5; conditions: 100 μM compound; 0.1 mM FdL-1 peptide, 0.5 mM NAD+
[4] = target: Sirt3 (Homo sapiens, UniProt Q9NTG7); experiment: Fluor-de-Lys peptide deacetylation assay, Sirt3; conditions: 100 μM compound; 0.1 mM FdL-2 peptide, 0.5 mM NAD+

N1=C(c2nnn[nH]2)NNC(c2nnn[nH]2)=N1
--- (no such effect): Effect on the activity of Sirt2 [1] | Effect on the activity of Sirt6 [2] | Effect on the activity of Sirt5 [3] | Effect on the activity of Sirt3 [4]
